Experiments:
[1] = Effect of pH value on the stability of the solution (purity); format: physicochemical; conditions: 25° C.
[2] = Stability of the pure HPDs (dry solid) at 25° C./RH 60%; format: physicochemical; conditions: pure HPD
[3] = Effect of concentration on the stability of the solution (purity over time); conditions: at 5° C. in 15% ethanol
[4] = Effect of solvent on the stability of the solution (purity at various pH values and temperature); format: physicochemical; conditions: 7% solution
Excerpt: The results are illustrated in the following.

CC(O)C(=O)O.CCN(CC)CCOC(=O)c1ccccc1OC(C)=O [A-3, 2-(diethylamino)ethyl acetylsalicylate•lactic acid salt]
Purity(%) from day 0-14 ([1]; day 0, pH 1.0, 7% in water): 97.8 ± 0.3%
Purity(%) from day 0-14 ([1]; day 0, pH 2.0, 7% in water): 98.0 ± 0.2%
Purity(%) from day 0-14 ([1]; day 0, pH 3.0, 7% in water): 98.2 ± 0.1%
Purity(%) from day 0-14 ([1]; day 0, pH 3.7, 7% in water): 98.2 ± 0.2%
Purity(%) from day 0-14 ([1]; day 0, pH 4.0, 7% in water): 98.3 ± 0.1%
Purity(%) from day 0-14 ([1]; day 0, pH 4.3, 7% in water): 98.2 ± 0.1%
Purity(%) from day 0-14 ([1]; day 0, pH 4.6, 7% in water): 98.2 ± 0.3%
Purity(%) from day 0-14 ([1]; day 0, pH 5.0, 7% in water): 98.2 ± 0.2%
Purity(%) from day 0-14 ([1]; day 0, pH 6.0, 7% in water): 98.0 ± 0.1%
Purity(%) from day 0-14 ([1]; day 0, pH 7.0, 7% in water): 98.0 ± 0.2%
Purity(%) from day 0-14 ([1]; day 0, pH 8.0, 7% in water): 97.8 ± 0.2%
Purity ([2]; 3 month): 98.4 ± 0.2
Purity ([2]; 6 month): 98.2 ± 0.2
Purity ([2]; Day 0): 98.3 ± 0.1

CCN(CC)CCOC(=O)c1ccccc1OC(C)=O.O=C(O)/C=C\C(=O)O [A-1, 2-(diethylamino)ethyl acetylsalicylate•maleic acid salt]
Purity(%) from day 0-14 ([1]; day 0, pH 1.0, 7% in water): 98.1 ± 0.3%
Purity(%) from day 0-14 ([1]; day 0, pH 2.0, 7% in water): 98.2 ± 0.3%
Purity(%) from day 0-14 ([1]; day 0, pH 3.0, 7% in water): 98.4 ± 0.1%
Purity(%) from day 0-14 ([1]; day 0, pH 3.7, 7% in water): 98.5 ± 0.1%
Purity(%) from day 0-14 ([1]; day 0, pH 4.0, 7% in water): 98.6 ± 0.1%
Purity(%) from day 0-14 ([1]; day 0, pH 4.3, 7% in water): 98.5 ± 0.2%
Purity(%) from day 0-14 ([1]; day 0, pH 4.6, 7% in water): 98.5 ± 0.3%
Purity(%) from day 0-14 ([1]; day 0, pH 5.0, 7% in water): 98.4 ± 0.1%
Purity(%) from day 0-14 ([1]; day 0, pH 6.0, 7% in water): 98.3 ± 0.2%
Purity(%) from day 0-14 ([1]; day 0, pH 7.0, 7% in water): 98.2 ± 0.2%
Purity(%) from day 0-14 ([1]; day 0, pH 8.0, 7% in water): 98.0 ± 0.3%

CCN(CC)CCOC(=O)c1ccccc1OC(C)=O.Cl [2-(diethylamino)ethyl acetylsalicylate•HCl]
Purity at day 3 ([3]; 3 wt %): 98.6%
Purity at day 7 ([3]; 3 wt %): 97.7%
Purity at day 14 ([3]; 5 wt %): 98.9%
Purity at day 21 ([3]; 5 wt %): 98.5%
Purity at day 28 ([3]; 5 wt %): 98.0%
Purity at day 21 ([3]; 7 wt %): 98.9%
Purity at day 28 ([3]; 7 wt %): 98.7%
Purity at day 60 ([3]; 7 wt %): 98.0%
Purity at day 21 ([3]; 8 wt %): 98.8%
Purity at day 28 ([3]; 8 wt %): 98.6%
Purity at day 60 ([3]; 8 wt %): 98.0%
Purity at day 21 ([3]; 10 wt %): 98.7%
Purity at day 28 ([3]; 10 wt %): 98.7%
Purity at day 60 ([3]; 10 wt %): 98.3%
Purity at day 21 ([3]; 15 wt %): 98.9%
Purity at day 28 ([3]; 15 wt %): 98.7%
Purity at day 60 ([3]; 15 wt %): 98.1%
Purity at day 21 ([3]; 20 wt %): 99.0%
Purity at day 28 ([3]; 20 wt %): 98.8%
Purity at day 60 ([3]; 20 wt %): 98.1%
Purity at day 21 ([3]; 30 wt %): 99.0%
Purity at day 28 ([3]; 30 wt %): 98.9%
Purity at day 60 ([3]; 30 wt %): 98.2%
Purity at day 28 ([3]; 50 wt %): 99.0%
Purity at day 60 ([3]; 50 wt %): 98.2%

CCN(CC)CCOC(=O)c1ccccc1OC(C)=O.O=C(O)c1ccccc1 [A-2, 2-(diethylamino)ethyl acetylsalicylate•benzoic acid salt]
Purity(%) from day 0-14 ([1]; day 0, pH 1.0, 7% in water): 98.2 ± 0.2%
Purity(%) from day 0-14 ([1]; day 0, pH 2.0, 7% in water): 98.4 ± 0.2%
Purity(%) from day 0-14 ([1]; day 0, pH 3.0, 7% in water): 98.5 ± 0.1%
Purity(%) from day 0-14 ([1]; day 0, pH 3.7, 7% in water): 98.6 ± 0.1%
Purity(%) from day 0-14 ([1]; day 0, pH 4.0, 7% in water): 98.6 ± 0.2%
Purity(%) from day 0-14 ([1]; day 0, pH 4.3, 7% in water): 98.7 ± 0.2%
Purity(%) from day 0-14 ([1]; day 0, pH 4.6, 7% in water): 98.6 ± 0.3%
Purity(%) from day 0-14 ([1]; day 0, pH 5.0, 7% in water): 98.5 ± 0.2%
Purity(%) from day 0-14 ([1]; day 0, pH 6.0, 7% in water): 98.4 ± 0.3%
Purity(%) from day 0-14 ([1]; day 0, pH 7.0, 7% in water): 98.2 ± 0.2%
Purity(%) from day 0-14 ([1]; day 0, pH 8.0, 7% in water): 98.0 ± 0.3%
Purity ([2]; 3 month): 98.4 ± 0.1
Purity ([2]; 6 month): 98.2 ± 0.2
Purity ([2]; Day 0): 98.5 ± 0.2

CCCCC(=O)O.CCN(CC)CCOC(=O)c1ccccc1OC(C)=O [A-4, 2-(diethylamino)ethyl acetylsalicylate•valeric acid]
Purity(%) from day 0-14 ([1]; day 0, pH 1.0, 7% in water): 97.8 ± 0.2%
Purity(%) from day 0-14 ([1]; day 0, pH 2.0, 7% in water): 98.1 ± 0.2%
Purity(%) from day 0-14 ([1]; day 0, pH 3.0, 7% in water): 98.3 ± 04%
Purity(%) from day 0-14 ([1]; day 0, pH 3.7, 7% in water): 98.4 ± 0.1%
Purity(%) from day 0-14 ([1]; day 0, pH 4.0, 7% in water): 98.4 ± 0.2%
Purity(%) from day 0-14 ([1]; day 0, pH 4.3, 7% in water): 98.5 ± 0.1%
Purity(%) from day 0-14 ([1]; day 0, pH 4.6, 7% in water): 98.4 ± 0.3%
Purity(%) from day 0-14 ([1]; day 0, pH 5.0, 7% in water): 98.3 ± 0.2%
Purity(%) from day 0-14 ([1]; day 0, pH 6.0, 7% in water): 98.2 ± 0.2%
Purity(%) from day 0-14 ([1]; day 0, pH 7.0, 7% in water): 98.0 ± 0.3%
Purity(%) from day 0-14 ([1]; day 0, pH 8.0, 7% in water): 97.9 ± 0.2%
Purity ([2]; 3 month): 98.5 ± 0.1

CCN(CC)CCOC(=O)c1ccccc1OC(C)=O.Cl
Purity(%) at day 14 (5° C.) ([4]; solvent 15% ethanol, pH 3.0, day 14, 5° C.): 98.3 ± 0.3%
Purity(%) at day 14 (5° C.) ([4]; solvent 15% ethanol, pH 3.7, day 14, 5° C.): 98.9 ± 0.2%
Purity(%) at day 14 (5° C.) ([4]; solvent 15% ethanol, pH 4.0, day 14, 5° C.): 98.9 ± 0.1%
Purity(%) at day 14 (5° C.) ([4]; solvent 15% ethanol, pH 4.3, day 14, 5° C.): 98.9 ± 0.1%
Purity(%) at day 14 (5° C.) ([4]; solvent 15% ethanol, pH 4.6, day 14, 5° C.): 98.6 ± 0.2%
Purity(%) at day 14 (5° C.) ([4]; solvent 25% ethanol, pH 3.0, day 14, 5° C.): 98.5 ± 0.2%
Purity(%) at day 14 (5° C.) ([4]; solvent 25% ethanol, pH 4.6, day 14, 5° C.): 98.8 ± 0.1%
Purity(%) at day 14 (5° C.) ([4]; solvent 25% ethanol, pH 5.0, day 14, 5° C.): 98.0 ± 0.2%
Purity(%) at day 14 (5° C.) ([4]; solvent 50% ethanol, pH 3.0, day 14, 5° C.): 98.6 ± 0.3%
Purity(%) at day 14 (5° C.) ([4]; solvent 50% ethanol, pH 4.6, day 14, 5° C.): 99.0 ± 0.3%
Purity(%) at day 14 (5° C.) ([4]; solvent 50% ethanol, pH 5.0, day 14, 5° C.): 98.2 ± 0.3%
Purity(%) at day 14 (5° C.) ([4]; solvent water, pH 3.0, day 14, 5° C.): 98.1 ± 0.1%
Purity(%) at day 14 (5° C.) ([4]; solvent water, pH 3.7, day 14, 5° C.): 98.7 ± 0.1%
Purity(%) at day 14 (5° C.) ([4]; solvent water, pH 4.0, day 14, 5° C.): 98.8 ± 0.1%
Purity(%) at day 14 (5° C.) ([4]; solvent water, pH 4.3, day 14, 5° C.): 98.9 ± 0.1%
Purity(%) at day 14 (5° C.) ([4]; solvent water, pH 4.6, day 14, 5° C.): 98.5 ± 0.2%
Purity(%) at day 0 ([4]; solvent water, pH 8.0, day 0): 99.0 ± 0.3%
